From PMC8167055

Target: LC3B fused with mCherry (microtubule-associated protein light chain 3) (human) (UniProt Q9GZQ8)
Assay: ELISA; plate coated with 5 μg/ml mCherry-LC3B in PBS, blocked with BSA; serial dilutions of TPPP/p25 forms or SYN; detected by TPPP/p25 or SYN antibodies; apparent Kd from hyperbola with a single binding site

Kd: 1.62 µM
Substance: alpha-synuclein (SYN), human recombinant (from UniProt P37840 1-140) (natural protein)
